Key:
[1] = In vitro growth inhibition of human breast adrenocarcinoma cell line, MDA-231 with over-expressed folate receptors in folate deficient medium
[2] = In vitro growth inhibition of human ovarian carcinoma cell line, IGROV with over expressed folate receptors
[3] = test system: A498; experiment: In vitro growth inhibition of human kidney carcinoma cell line, A498 with low levels of folate receptors in folate deficient medium
[4] = In vitro growth inhibition of human breast adrenocarcinoma cell line, MDA-231 with over-expressed folate receptors
[5] = test system: A498; experiment: In vitro growth inhibition of human kidney carcinoma cell line, A498 with low levels of folate receptors
[6] = test system: A549; experiment: In vitro growth inhibition of human lung carcinoma cell line, A549 with low levels of folate receptors
[7] = test system: UMUC3; experiment: In vitro growth inhibition of human tumor cell line, UMUC3; assay type: functional, cell-based
Procedure, shortened: (§1)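 Cells were seeded and grown 24 h at 37 °C in McCoy's 5A medium with 10% heat-inactivated FBS, penicillin 100 U/mL and streptomycin 100 μg/mL. Drug from DMSO stock was added in the same medium, with final DMSO <1%. Five serial 10-fold dilutions were tested, top final concentration 100 μg/mL.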

[8] = test system: HT-29; experiment: In vitro growth inhibition of human tumor cell line, HT-29; assay type: functional, cell-based; procedure, shortened: as §1
[9] = test system: MIA PaCa-2; experiment: In vitro growth inhibition of human tumor cell line, PACA2; assay type: functional, cell-based; procedure, shortened: as §1
[10] = test system: A549; experiment: In vitro growth inhibition of human lung carcinoma cell line, A549 with low levels of folate receptors in folate deficient medium
[11] = test system: PC-3; experiment: In vitro growth inhibition of human tumor cell line, PC3; assay type: functional, cell-based; procedure, shortened: as §1
[12] = In vitro growth inhibition of human ovarian carcinoma cell line, IGROV with over expressed folate receptors in folate deficient medium
[13] = In vitro growth inhibition of human breast adrenocarcinoma cell line, MDA-231 with over expressed folate receptors

| Structure (SMILES) | IC50 [1] | IC50 [2] | IC50 [3] | IC50 [4] | IC50 [5] | IC50 [6] | IC50 [7] | IC50 [8] | IC50 [9] | IC50 [10] | IC50 [11] | IC50 [12] | IC50 [13] |
| --- | --- | --- | --- | --- | --- | --- | --- | --- | --- | --- | --- | --- | --- |
| NP(=O)(OCc1ccc([N+](=O)[O-])o1)N(CCBr)CCBr (centres undefined) | 22 nM | 41 nM | 29 nM | 32 nM | 45 nM | 270 nM | 13 nM | 60 nM | 160 nM | 260 nM | 250 nM | 49 nM | – |
| NP(=O)(OCc1ccc([N+](=O)[O-])o1)N(CCCl)CCCl (centres undefined) | – | – | – | – | 1100 nM | 330 nM | 55 nM | 380 nM | 130 nM | – | 1000 nM | – | 520 nM |
